Values of other authors, collected in US5866346A (priority 1997, dated 1999).

By UniProt entry, the sequences of proteins in these tests, tags left out. Where a name states a change or a piece, a line headed by the entry shows the natural chain unless it says otherwise.
UniProt P33534: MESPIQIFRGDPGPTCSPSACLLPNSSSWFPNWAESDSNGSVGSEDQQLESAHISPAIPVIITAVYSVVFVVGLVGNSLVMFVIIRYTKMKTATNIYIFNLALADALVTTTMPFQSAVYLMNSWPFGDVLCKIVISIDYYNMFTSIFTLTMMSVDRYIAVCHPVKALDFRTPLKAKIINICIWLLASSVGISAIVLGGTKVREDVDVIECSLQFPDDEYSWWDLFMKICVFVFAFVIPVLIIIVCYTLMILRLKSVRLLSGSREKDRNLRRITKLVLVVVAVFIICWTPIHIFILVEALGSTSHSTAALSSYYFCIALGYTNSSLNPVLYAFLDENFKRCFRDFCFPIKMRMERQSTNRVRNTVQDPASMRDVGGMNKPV

Target: kappa opioid receptor (KOR) (Mus musculus, UniProt P33534)
Conditions: read-out: KOR (Ki) Mouse (23); cited from earlier work

## CC[C@H](C)[C@H](NC(=O)[C@H](CCCNC(=N)N)NC(=O)[C@H](CCCNC(=N)N)NC(=O)[C@H](CC(C)C)NC(=O)[C@H](Cc1ccccc1)NC(=O)CNC(=O)CNC(=O)[C@@H](N)Cc1ccc(O)cc1)C(=O)N[C@@H](CCCNC(=N)N)C(=O)N1CCC[C@H]1C(=O)N[C@@H](CCCCN)C(=O)N[C@@H](CC(C)C)C(=O)N[C@@H](CCCCN)C(=O)N[C@@H](Cc1c[nH]c2ccccc12)C(=O)N[C@@H](CC(=O)O)C(=O)N[C@@H](CC(N)=O)C(=O)N[C@@H](CCC(N)=O)C(=O)O [dyn A, dynorphin A]
  Ki: 500 pM
